Only a part is listed here, and it is no random draw. Calls of active or inactive are those of the source.
Assay: plasmodial surface anion channel blockers, osmotic lysis – cell-based, P. falciparum Indochina, OD700, 1 h, primary screen (AID 1154)
Settings: P. falciparum Indochina infected RBC osmotic lysis, higher = more signal, called active from +8 up or from −8 down

Structure (SMILES)	z-score
COP(=O)(/N=C1/CC(CCCO)=CC(C2CC2)N1Cc1cc2c(cc1Br)OCO2)OC (stereo not given)	inactive: 3.22
CN1/C(=N\P(=O)(Oc2ccccc2)Oc2ccccc2)CC(CCCO)=CC1c1cccs1 (stereo not given)	inactive: 2.04
COP(=O)(/N=C1/CC(CCCO)=CC(C2CC2)N1Cc1cccc(OC(F)(F)F)c1)OC (stereo not given)	inactive: 0.553
O=P(/N=C1/CC(CCCO)=CC(C2CC2)N1Cc1cc2c(cc1Br)OCO2)(Oc1ccccc1)Oc1ccccc1 (stereo not given)	inactive: 3.13
COP(=O)(/N=C1/CC(CCCO)=CC(c2ccc(CN3CCCC3)cc2)N1Cc1cc2c(cc1Br)OCO2)OC (stereo not given)	inactive: 0.725
O=P(/N=C1/CC(CCCO)=CC(c2ccc(CN3CCCC3)cc2)N1Cc1cc2c(cc1Br)OCO2)(Oc1ccccc1)Oc1ccccc1 (stereo not given)	inactive: 0.732
CC1C=C(CCCO)C/C(=N/P(=O)(Oc2ccccc2)Oc2ccccc2)N1Cc1cccc(OC(F)(F)F)c1 (stereo not given)	inactive: 0.987
CN1/C(=N\P(=O)(Oc2ccccc2)Oc2ccccc2)CC(c2ccc(CO)cc2)=CC1C1CC1 (stereo not given)	inactive: 2.09
O=P(/N=C1/CC(CCCO)=CC(c2cccs2)N1Cc1cccc(OC(F)(F)F)c1)(Oc1ccccc1)Oc1ccccc1 (stereo not given)	inactive: 2.3
O=P(/N=C1/CC(CCCO)=CC(C2CC2)N1Cc1cccc(OC(F)(F)F)c1)(Oc1ccccc1)Oc1ccccc1 (stereo not given)	inactive: 1.47
O=P(/N=C1/CC(c2ccc(CO)cc2)=CC(C2CC2)N1Cc1cc2c(cc1Br)OCO2)(Oc1ccccc1)Oc1ccccc1 (stereo not given)	inactive: 6.93
O=P(/N=C1/CC(c2ccc(CO)cc2)=CC(c2cccs2)N1Cc1cccc(OC(F)(F)F)c1)(Oc1ccccc1)Oc1ccccc1 (stereo not given)	inactive: 3.35
COP(=O)(/N=C1/CC(c2ccc(CO)cc2)=CC(c2cccs2)N1C)OC (stereo not given)	inactive: 3.91
CN1/C(=N\P(=O)(Oc2ccccc2)Oc2ccccc2)CC(CCCO)=CC1c1ccc(CN2CCCC2)cc1 (stereo not given)	inactive: 0.689
O=P(/N=C1/CC(CCCO)=CC(c2cccs2)N1Cc1cc2c(cc1Br)OCO2)(Oc1ccccc1)Oc1ccccc1 (stereo not given)	inactive: 4.44
COP(=O)(/N=C1/CC(CCCO)=CC(c2ccc(CN3CCCC3)cc2)N1Cc1cccc(OC(F)(F)F)c1)OC (stereo not given)	inactive: 0.816
CN1/C(=N\P(=O)(Oc2ccccc2)Oc2ccccc2)CC(c2ccc(CO)cc2)=CC1c1cccs1 (stereo not given)	inactive: 2.48
COP(=O)(/N=C1/CC(c2ccc(CO)cc2)=CC(C2CC2)N1Cc1sc2ccccc2c1Cl)OC (stereo not given)	active: 13.7
COP(=O)(/N=C1/CC(CCCO)=CC(c2cccs2)N1C)OC (stereo not given)	inactive: 0.773
COP(=O)(/N=C1/CC(CCCO)=CC(C2CC2)N1C)OC (stereo not given)	inactive: -1.02
COP(=O)(/N=C1/CC(CCCO)=CC(c2ccc(CN3CCCC3)cc2)N1C)OC (stereo not given)	inactive: -0.365
COP(=O)(/N=C1/CC(CCCO)=CC(C)N1Cc1cccc(OC(F)(F)F)c1)OC (stereo not given)	inactive: -0.277
COP(=O)(/N=C1/CC(CCCO)=CC(C2CC2)N1Cc1sc2ccccc2c1Cl)OC (stereo not given)	inactive: 7.58
COP(=O)(/N=C1/CC(c2ccc(CO)cc2)=CC(C2CC2)N1C)OC (stereo not given)	inactive: 1.07
COP(=O)(/N=C1/CC(c2ccc(CO)cc2)=CC(C2CC2)N1Cc1cc2c(cc1Br)OCO2)OC (stereo not given)	active: 9.29
O=P(/N=C1/CC(CCCO)=CC(C2CC2)N1Cc1sc2ccccc2c1Cl)(Oc1ccccc1)Oc1ccccc1 (stereo not given)	inactive: 7.46
COP(=O)(/N=C1/CC(CCCO)=CC(c2ccc(CN3CCCC3)cc2)N1Cc1sc2ccccc2c1Cl)OC (stereo not given)	inactive: 4.09
O=P(/N=C1/CC(c2ccc(CO)cc2)=CC(C2CC2)N1Cc1sc2ccccc2c1Cl)(Oc1ccccc1)Oc1ccccc1 (stereo not given)	inactive: 7.89
O=P(/N=C1/CC(CCCO)=CC(c2ccc(CN3CCCC3)cc2)N1Cc1sc2ccccc2c1Cl)(Oc1ccccc1)Oc1ccccc1 (stereo not given)	inactive: 4.57
CN1/C(=N\P(=O)(Oc2ccccc2)Oc2ccccc2)CC(CCCO)=CC1C1CC1 (stereo not given)	inactive: 0.0313

Reference: PubChem BioAssay AID1154 (ChemBank, 2008)
